scFv variants of Ab-14 (light chain) against a SARS-CoV-2 spike peptide

Values reported by Engelhart et al. 2022, doi:10.1038/s41597-022-01779-4 (FLAb copy).

The target is the same throughout: PDVDLGDISGINAS, from the HR2 region of SARS-CoV-2 spike.

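The library (AAYL50) carries one to three amino acid substitutions per variant, with no insertions or deletions. The scFvs were displayed on barcoded MATa yeast, the peptide on MATalpha yeast. After mating in shaken culture at 30 °C for 16 h, diploids were selected and their barcode pairs sequenced. Each replicate has its own calibration line, from reference interactions of the BCL2 family. Mating was done three times.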

Each scFv is VH, a 15-residue (Gly4Ser)3 linker, VL, as in the parent Ab-14, and differs from it in the CDRs of the light chain only.
VH: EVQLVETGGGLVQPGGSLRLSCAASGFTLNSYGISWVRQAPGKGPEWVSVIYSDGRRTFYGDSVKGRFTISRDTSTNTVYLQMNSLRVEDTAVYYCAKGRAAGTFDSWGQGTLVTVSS
VL: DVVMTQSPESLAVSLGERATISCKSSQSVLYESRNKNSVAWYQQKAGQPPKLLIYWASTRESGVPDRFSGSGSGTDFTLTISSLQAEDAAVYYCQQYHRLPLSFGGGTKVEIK

Substitutions are numbered in sequence along the VL above, starting at 1 (not Kabat).
Each Kd is an estimate from the mating assay, the geometric mean of the replicates in which the pair was seen; lower is stronger.
"no signal" means that the variant was in the library but no mating with the target was seen in any replicate; the authors take this as a sign of poor binding, and no number exists.

changes,Kd,replicates with signal,signal with controls
S25V R34C N35V,5.2 nM,3 of 3,0 of 9
K24M S33M S103Q,69 nM,3 of 3,1 of 9
Y31W R34Q S62C,15 nM,3 of 3,3 of 9
Q27F S28D K36R,24 nM,3 of 3,1 of 9
L30P L102F S103I,5.6 nM,3 of 3,4 of 9
K36M Y97M H98S,29 nM,3 of 3,0 of 9
S25V N37P S62R,29 nM,3 of 3,2 of 9
S25G R60S E61Y,no signal,0 of 3,0 of 9
S38P S62D H98A,3.4 nM,3 of 3,3 of 9
S26P L30E,13 nM,3 of 3,0 of 9
S38Q S58V E61Y,49 nM,3 of 3,0 of 9
V29M N35H E61I,14 nM,3 of 3,3 of 9
S28R S62K Y97C,no signal,0 of 3,0 of 9
V29Y Q96I S103H,13 nM,3 of 3,1 of 9
V39C A40Q P101H,no signal,0 of 3,2 of 9
Q27L S58E L102K,44 nM,3 of 3,2 of 9
L30E N35R,18 nM,3 of 3,8 of 9
S25L T59H P101T,11 µM,1 of 3,2 of 9
Q27R R60H Y97T,2.6 µM,2 of 3,1 of 9
K24W S26G Y31D,9.8 nM,3 of 3,6 of 9
V39P W56D S103R,19 µM,2 of 3,6 of 9
T59Y R60S L100A,no signal,0 of 3,0 of 9
V39G W56A S62F,42 µM,1 of 3,1 of 9
S25N S58V Q95F,11 µM,2 of 3,4 of 9
S26C A40H R99G,17 µM,2 of 3,6 of 9
K24W E32F H98D,1.1 µM,2 of 3,0 of 9
K24A E32G,22 nM,3 of 3,1 of 9
S38D L100I,410 nM,1 of 3,0 of 9
S26N A40Q L102C,34 µM,1 of 3,1 of 9
K24D T59S L102P,no signal,0 of 3,0 of 9
K24H L100M S103D,2.9 µM,2 of 3,4 of 9
A40C Y97C L100N,no signal,0 of 3,0 of 9
K36G S38P T59P,20 µM,2 of 3,3 of 9
W56V R99Y S103G,33 µM,2 of 3,3 of 9
T59N Q96F H98K,40 nM,3 of 3,1 of 9
S26V V29S H98E,37 nM,3 of 3,0 of 9
Q27G S62F L102K,95 µM,1 of 3,0 of 9
V29L S38K H98F,no signal,0 of 3,1 of 9
K24W A40H W56D,1.5 mM,1 of 3,4 of 9
S28M L30V A40D,1.1 µM,1 of 3,0 of 9
S25K N35V S38E,150 nM,3 of 3,2 of 9
Q27H L30M A40E,no signal,0 of 3,0 of 9
K36E W56M S62H,5.6 nM,3 of 3,2 of 9
L30F A40S S103P,22 µM,2 of 3,0 of 9
S26G A40S S103I,21 µM,3 of 3,6 of 9
V29F K36T S103R,630 nM,3 of 3,0 of 9
A40V H98K P101K,190 µM,1 of 3,2 of 9
K24Q E61N P101R,no signal,0 of 3,0 of 9
K36M A57L L102A,2.7 µM,1 of 3,2 of 9
S38G T59M Y97D,120 nM,3 of 3,2 of 9
R34M T59C Q96H,360 nM,3 of 3,0 of 9
N37L A40K T59A,no signal,0 of 3,0 of 9
N35T S38I L102V,51 µM,1 of 3,0 of 9
Q27I V29M N37F,16 nM,3 of 3,2 of 9
S25Q S26R,7.1 nM,3 of 3,3 of 9
R34D P101Y,no signal,0 of 3,0 of 9
S28R Y31C Q95D,210 nM,1 of 3,0 of 9
V29F N35S Q96R,46 nM,3 of 3,2 of 9
V29W T59Q L102A,150 nM,3 of 3,5 of 9
S25W S28F S38T,38 µM,3 of 3,8 of 9
N37M R99W,no signal,0 of 3,2 of 9
E32R R34V K36T,11 nM,3 of 3,0 of 9
V29Y E32Y,no signal,0 of 3,2 of 9
S26P N37G T59E,360 nM,3 of 3,3 of 9
N37L S38F T59L,11 µM,1 of 3,2 of 9

The first 10 entries again:

| changes | Kd | replicates with signal | signal with controls |
|---|---|---|---|
| S25V R34C N35V | 5.2 nM | 3 of 3 | 0 of 9 |
| K24M S33M S103Q | 69 nM | 3 of 3 | 1 of 9 |
| Y31W R34Q S62C | 15 nM | 3 of 3 | 3 of 9 |
| Q27F S28D K36R | 24 nM | 3 of 3 | 1 of 9 |
| L30P L102F S103I | 5.6 nM | 3 of 3 | 4 of 9 |
| K36M Y97M H98S | 29 nM | 3 of 3 | 0 of 9 |
| S25V N37P S62R | 29 nM | 3 of 3 | 2 of 9 |
| S25G R60S E61Y | no signal | 0 of 3 | 0 of 9 |
| S38P S62D H98A | 3.4 nM | 3 of 3 | 3 of 9 |
| S26P L30E | 13 nM | 3 of 3 | 0 of 9 |

Empty control strains, which show no peptide, gave a signal in 18% of pairings with library AAYL50; the median was 15 µM and 95% of these signals were weaker than 970 nM. No background was subtracted. The control count says in how many pairings with the empty strains this scFv gave a signal.